Assay results: US20220291203A1, “METHODS OF MEASURING CELL-MEDIATED KILLING BY EFFECTORS” (IMMUNOWAKE INC., priority 2019, published 2022)

What was measured:
Assay type in all cases: cell-based, human
3D LnCaP spheroids = assay: NK92 ADCC in 3D tumor spheroids (Example 22); details: NK92 (CD16+) 3E:1T; 1000-0.32 ng/mL; t=24, 48, 72 hrs
Method: 3D tumor spheroids were generated by culturing 10,000 dual reporter LnCaP cells as constructed in Example 3 in ultra-low attachment plates for 3 days. […] After 12-hour incubation, doxycycline was added (t=12 hr) to the reaction to induce expression of the dual reporters from live tumor cells. Cell culture media sample was taken every day post-induction with doxycycline (t=24, 48, and 72 hrs), and luminescence was measured on a GloMax Discover Microplate Reader. EGFP signal was monitored at the same time points using a Nikon Ellipse TE2000-U microscope. Percent cell survival was defined as signal readout at various antibody concentrations relative to the average readout with no antibody. The dose-response curves were generated from three replicate measurements.

[1] = system: dual reporter MDA-MB-468 cells; assay: Antibody-mediated killing by unstimulated PBMCs (Example 6); details: no HER2 expression, 200-0.0128 ng/mL
Method: (§1) Dual reporter tumor cell lines SK-BR-3 (high HER2 expression), LnCaP (intermediate HER2 expression), MDA-MB-231 (low HER2 expression), MCF-7 (normal HER2 expression similar to healthy tissue cells), and MDA-MB-468 (no HER2 expression) as constructed in Example 3 expressing various amounts of HER2 antigen were plated into wells of a %-well conical bottom plate at 5,000 tumor cells/well in the presence of 5,000 or 50,000 unstimulated PBMCs (effector cells), resulting in a 1:1 or 1:10 ratio of tumor cells to effector cells. […] Control wells were not provided with antibodies. The cell-killing reaction was incubated for 48 hours. After 48-hour incubation, doxycycline was added to the mixture of cells to induce expression of the dual reporters from live dual reporter tumor cells. 24 hours after doxycycline induction, cell culture media was taken, and luminescence was monitored on a GloMax Discover Microplate Reader. The dose-response curves were generated from two replicate measurements. As shown in FIGS. 7A-7D, cell killing responses based on the methods of the disclosure is dependent on type of antibody used, dose of the antibody, antigen expression level of the tumor cells, and the effector to target ratio.

[2] = system: dual reporter MCF-7 cells; assay: as above; details: normal HER2 expression, 200-0.0128 ng/mL
Method: as §1

[3] = system: dual reporter SK-BR-3 cells; assay: E:T ratio and ADCC by donor PBMCs (Example 20)
Method: (§2) After 8-hour incubation, doxycycline was added (t=8 hr) to the mixture of cells to induce expression of the dual reporters. Cell culture media was taken one day post-incubation of antibody/tumor cells/PBMCs (t=24 hr), and luminescence was measured on a GloMax Discover Microplate Reader. Percent cell survival was defined as luminescence readout at various antibody concentrations relative to the average readout with no antibody. The dose-response curves were generated from three replicate measurements.

[4] = system: dual reporter SK-BR-3 cells; assay: Herceptin ADCC by NK92 cells, snLuciferase readout (Example 4); details: NK92 effector cells, E:T 3:1; 8 hours incubation, snLuciferase 24 hours after doxycycline
Method: 15,000 NK92 cells (effector cells) and 5,000 dual reporter SK-BR-3 cells (breast cancer tumor cells) as constructed in Example 2 were plated in a 96-well conical bottom plate, resulting in a 3:1 effector cell to tumor cell ratio. […] Control wells were not provided with Herceptin®. The cell-killing reaction was incubated for 8 hours. After the 8 hours incubation, doxycycline was added to the cell mixture to induce expression of the dual reporters from remaining dual reporter SK-BR-3 cells. 24 hours after doxycycline induction, snLuciferase was measured using a GloMax Discover Microplate Reader. Percent cell survival was calculated as the ratio of relative light unit (RLU) in Herceptin®-containing wells to the RLU in the Herceptin®-free control wells.

[5] = system: dual reporter SK-BR-3 cells; assay: Reporter induction time in NK92 ADCC (Example 18)
Method: The timing of the reporter expression phase was changed by adding doxycycline at different time points: −24 hours (dox induction in dual reporter SK-BR-3 cells 24 hours before co-incubating antibody/tumor cells/NK92, to mimic “constitutive” expression), and 0, 4, and 12 hours post-incubation of antibody/tumor cells/NK92. 24 hours after doxycycline induction, media was taken from each well and snLuciferase luminescence was measured using a GloMax Discover Microplate Reader, and Nikon Ellipse TE2000-U microscope was used to capture EGFP signal. The dose-response curves were generated from three replicates. Percent cell survival was defined as snLuciferase readout (RLU) at various antibody concentrations relative to the average readout with no antibody.

[6] = system: dual reporter SK-BR-3 cells; assay: Herceptin ADCC by NK92 cells, GFP readout (Example 5); details: NK92, E:T 3:1; 10 ng/mL-0.31 ng/mL; 8-hour incubation, GFP 24 hours after doxycycline
Method: 15,000 NK92 cells (effector cells) and 5,000 dual reporter SK-BR-3 cells (tumor cells) as constructed in Example 2 were plated in a 96-well conical bottom plate, resulting in a 3:1 effector cell to tumor cell ratio. […] The cell killing reaction was incubated for 8 hours. After 8-hour incubation, doxycycline was added to the mixture of cells to induce expression of the dual reporters from remaining dual reporter SK-BR-3 cells. 24 hours after doxycycline induction, the tumor cells were analyzed using a Nikon Ellipse TE2000-U microscope for GFP, and snLuciferase was measured using a GloMax Discover Microplate Reader. The GFP signal was quantified using ImageJ. Percent cell survival was calculated as the ratio of corrected total cell fluorescence (CTCF) in Herceptin®-containing wells to the CTCF in the Herceptin®-free control wells.

[7] = system: dual reporter MDA-MB-468 cells; assay: Tumor antigen level and NK92 ADCC (Example 19); details: no HER2 expression; control
Method: as §2, with “cells/NK cells” for “cells/PBMCs”

[8] = system: dual reporter tumor cells (SK-BR-3, LnCaP, MDA-MB-231, MCF-7, and MDA-MB-468); assay: Tumor antigen level and NK92 ADCC (Example 19), cell line panel; details: NK92 (CD16+) 3E:1T; 1000-0.32 ng/mL; dox t=8 hr, read t=24 hr
Method: as §2, with “cells/NK cells” for “cells/PBMCs”
Expression of tumor antigen (HER2) was measured using FACS. […] Cells were incubated with a secondary antibody targeting anti-human IgG1 for 30 minutes at 4° C., and washed three times before analysis with Guava® easyCyte.

[9] = system: dual reporter SK-BR-3 cells; assay: Herceptin/PBMC killing under varied total reaction time (Example 11); details: unstimulated PBMCs 3E:1T; dox at 0, 12, 24, 48 hr; luc at 24, 48 hr
Source text: This example illustrates the benefit of using secreted inducible reporters in studying cell-mediated cytotoxicity. Since secreted reporter proteins accumulate in the media overtime, multiple measurements can be taken from the same sample well. This allows us to analyze how cell-mediated cytotoxicity changes over the total reaction time and under different reporter induction timing. […] The timing of the reporter expression phase was changed by adding doxycycline at different time points: 0, 12, 24, and 48 hours post-incubation of antibody, tumor cells, and PBMCs (dox@0, 12, 24, or 48 hr in FIG. 12A). snLuciferase was measured 24 and 48 hours after adding doxycycline (luc@t24 hr and luc@48 hr in FIG. 12A). Total reaction time was calculated as the incubation time before adding doxycycline, plus doxycycline induction time before measuring snLuciferase (indicated on top of each panel in FIG. 12A). The dose-response curves were generated from two replicates. […] If the total reaction time is too short, the detected cell-killing effect could be weak even if report expression is induced early on, because not enough time has passed for cytolysis to occur (compare luc@24 hr and dox@0 hr with others in FIGS. 12A-12B). […]

[10] = system: dual reporter SK-BR-3 cells; assay: NK92 ADCC in presence of cancer patient serum (Example 21); details: 10% FBS control vs 1/10 patient serum

trastuzumab [Herceptin®]
NK cell-mediated ADCC, snLuciferase signal (3D LnCaP spheroids): antibody concentration dependent manner
antibody concentration-dependent effector cell killing [1]: did not mediate antibody concentration-dependent ADCC
antibody concentration-dependent effector cell killing [2]: did not mediate antibody concentration-dependent ADCC
ADCC by donor unstimulated PBMCs ([3]; 5E:1T ratio): Partial response
ADCC by donor unstimulated PBMCs ([3]; 10E:1T): all patients showed ADCC
ADCC by donor unstimulated PBMCs ([3]; 25E:1T): all patients showed ADCC
ADCC on dual reporter SK-BR-3 cells (percent cell survival, snLuciferase) [4]: concentration-dependent ADCC
NK cell ADCC ([5]; NK92 (CD16+) 3E:1T, 200-0.0128 ng/mL): antibody-concentration dependent manner
ADCC detected versus constitutive expression or dox@0 hr ([5]; doxycycline added at 4 hrs or 12 hrs post-incubation): could achieve stronger ADCC
ADCC, GFP signal versus antibody concentration [6]: dose-dependent relationship between GFP signal and antibody concentration
NK cell ADCC [7]: without observed ADCC
NK cell ADCC, dependence on concentration and HER2 level [8]: antibody concentration-dependent and antigen expression level-dependent manner
dose-response of cell killing versus total reaction time [9]: the dose-response curves can change over time
ADCC with control serum versus patient serum [10]: did not significantly differ
